Patent US9370606B2, “Scaffold-free self-organized 3D synthetic tissue” (Two Cells, Co., Ltd., priority 2003, dated 2016)

Test system: synovial cell in a three-dimensional synthetic tissue
Assay: Chondrogenesis induction of the synthetic tissue
Type: cell-based
Conditions: chondrogenesis induction medium+BMP-2
Protocol: In this example, it was determined whether or not chondrogenesis induction can be used for the production method of the synthetic tissue of the present invention.
Cell density: 4×10^4 cells/cm^2
Conditions: CO2 5%, air 95%, 37° C.
These conditions and a chondrogenesis induction medium described below were used to produce a synthetic tissue.
Cartilage differentiation induction medium: DMEM (GIBCO), FBS (HyClone) 10%, ITS+Premix (insulin, transferrin, selenious acid) (BD Biosciences) 6.25 μg/ml, dexamethasone (Sigma) 10^−7 M, ascorbic acid (WAKO) 50 μg/ml, pyrubic acid (SIGMA) 100 μg/ml.

B1: BMP-2: bone morphogenetic protein added to chondrogenesis induction medium (protein, UniProt P12643 283-396, looked up)
Bone morphogenetic protein 2: QAKHKQRKRLKSSCKRHPLYVDFSDVGWNDWIVAPPGYHAFYCHGECPFPLADHLNSTNHAIVQTLVNSVNSKIPKACCVPTELSAISMLYLDENEKVVLKNYQDMVVEGCGCR
With B1 the “acceleration of cartilage-like matrix production (Alcian blue staining)” value was “significant” and the “expression of the collagen II gene” value was “increased”.
